This note sets out measurements from patent publication US20240352073A1, “BICYCLIC PEPTIDE INHIBITORS OF INTERLEUKIN-23 RECEPTOR” (Janssen Biotech, Inc., priority 2021, published 2024).

pIC50: −log10 of the molar value. Where only a bound is given, the exact number is not on record here.

The target of the first assay is T1, IL-23R (Homo sapiens, UniProt Q5VWK5).
T1 construct: host or cells: HEK293
T1 sequence (Q5VWK5 24-629): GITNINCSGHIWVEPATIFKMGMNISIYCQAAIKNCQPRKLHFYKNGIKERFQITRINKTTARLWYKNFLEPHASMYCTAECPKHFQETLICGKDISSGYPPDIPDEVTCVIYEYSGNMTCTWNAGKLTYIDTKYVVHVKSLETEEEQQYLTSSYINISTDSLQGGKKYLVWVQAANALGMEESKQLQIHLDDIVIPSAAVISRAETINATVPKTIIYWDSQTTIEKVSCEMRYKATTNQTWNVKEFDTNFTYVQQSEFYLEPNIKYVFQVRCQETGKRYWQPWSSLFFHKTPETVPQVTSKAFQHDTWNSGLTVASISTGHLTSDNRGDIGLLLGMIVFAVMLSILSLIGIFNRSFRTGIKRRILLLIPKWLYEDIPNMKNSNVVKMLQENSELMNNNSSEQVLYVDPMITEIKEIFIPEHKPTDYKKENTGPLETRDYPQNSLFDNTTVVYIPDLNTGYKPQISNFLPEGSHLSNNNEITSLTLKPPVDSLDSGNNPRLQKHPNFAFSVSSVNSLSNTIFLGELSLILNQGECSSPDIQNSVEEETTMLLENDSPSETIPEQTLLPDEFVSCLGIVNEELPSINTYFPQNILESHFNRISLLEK
Briefly: IL-23R reporter assay (HEK293, STAT-inducible luciferase). It is filed as cell-based. As to conditions: HEK293 cells containing IL-23R, IL-12Rβ1 and STAT-inducible luciferase reporter; 20 ng/mL IL-23 (EC90); 5 h. The protocol: Example 4. IL-23R Reporter Assay
Compounds were serially diluted in 100% (v/v) DMSO) and plated using an Echo acoustic dispenser (Labcyte) into 1536-well non-treated black assay plates (Corning #9146). 3 μL of HEK293 cells containing IL-23R, IL-12Rβ1 and a firefly luciferase reporter gene driven by a STAT-inducible promoter (Promega) were added to the plates (4000 cells/well), followed by 3 μL of 20 ng/mL IL-23 (equivalent to EC90 concentration). After 5 h at 37° C., 5% CO2, 95% relative humidity, cells were placed at 20° C. and treated with BioGlo reagent (Promega) according to the manufacturer's instructions. Luminescence was measured on a Pherastar FSX (BMG LabTech). Data were normalized to IL-23 treatment (0% inhibition) and 30 μM of control inhibitor (100% inhibition), and IC50 values were determined using a 4-parameter Hill equation. Where multiple measurements have been made the average is shown with the number of replicates indicated in parenthesis following the IC50 values.
Compound “MeCO-Pen(3)-N-T-7MeW-S5H(4)-Pen(3)-AEF-2Nal-S5H(4)-K(Ac)-N-3Pya-Sar-CONH2 [Example 205]” showed a negative-log IC50 (pIC50) of 8.12.

Compound “MeCO-R7H(4)-Pen(3)-N-T-7MeW-K(Ac)-Pen(3)-AEF-2Nal-THP-S5H(4)-N-3Pya-Sar-CONH2 [Example 209]” had a pIC50 of 8.57. As to “MeCO-R5H(4)-Pen(3)-Q-T-W-Q-Pen(3)-AEF-2Nal-THP-S5H(4)-N-3Pya-Sar-CONH2 [Example 215]”, the negative logarithm of the IC50 (pIC50) was 7.72. With “MeCO-R5H(4)-Pen(3)-N-T-7MeW-K(Ac)-Pen(3)-AEF-2Nal-aMeK-S5H(4)-N-3Pya-Sar-CONH2 [Example 203]”, the pIC50 was 8.06. On to “MeCO-lys(2)-Pen(3)-Q-T-W-Q-Pen(3)-AEF-2Nal-THP-E(2)-N-3Pya-Sar-CONH2 [Example 214]”, for which the pIC50 is 6.92.

The compound “MeCO-Pen(3)-E(2)-T-7MeW-K(NMeAc)-Pen(3)-AEF(2)-2Nal-THP-K(NMeAc)-N-3Pya-Sar-CONH2 [Example 217]” had a pIC50 of 7.51. “MeCO-Pen(3)-E(2)-T-7MeW-K(NMeAc)-Pen(3)-AEF(2)-2Nal-THP-K(NMeAc)-N-3Pya-Sar-CONHMe [Example 216]” showed a pIC50 of 6.60. “MeCO-R5H(4)-Pen(3)-N-T-7MeW-K(Ac)-Pen(3)-AEF-2Nal-aMeK-S5H(4)-N-3Pya-Sar-CONH2 [Example 204]” showed a pIC50 of 7.82.

The same assay, now with this note: Table 4; HEK293 cells with IL-23R, IL-12Rβ1 and STAT-inducible luciferase reporter, stimulated with IL-23.
On to “AEEP(2)-Pen(3)-N-T-7MeW-K(PEG2PEG2gEC18OH)-Pen(3)-AEF-2Nal-THP-E(2)-N-3Pya-Sar-CONH2 [Example 261]”, for which the pIC50 was 6.70.

Take “MeCO-Pen(3)-N-T-7MeW-K(Ac)-Pen(3)-4AmF-2Nal-THP-E(2)-N-3Pya-dK(2)-CONH2 [Example 234]”: the pIC50 was 6.60.

For “5Ava(2)-Abu(1)-N-T-W-K(PEG2PEG2gEC18OH)-C(1)-AEF-2Nal-THP-E(2)-N-3Pya-Sar-CONH2 [Example 249]”, the pIC50 is below 4.78. For the compound “5cpaCO-k(2)-Pen(3)-N-T-7MeW-K(Ac)-Pen(3)-AEF-2Nal-THP-hE(2)-N-3Pya-Sar-CONH2 [Example 230]”, the negative-log IC50 (pIC50) is 5.63. Compound “MeCO-Pen(3)-E(2)-T-7MeW-K(Ac)-Pen(3)-AEF(2)-2Nal-THP-E-N-3Pya-Sar-CONH2 [Example 268]” gave a pIC50 of 8.02. Regarding “MeCO-GLU(2)-Pen(3)-N-T-7MeW-K(Ac)-Pen(3)-AEF(2)-2Nal-THP-K(Ac)-N-3Pya-Sar-CONH2 [Example 228]”, the negative-log IC50 (pIC50) is below 4.78. Turning to “MeCO-Pen(3)-N-3OHPro-7MeW-S5H(4)-Pen(3)-AEF-2Nal-S5H(4)-K(Ac)-N-3Pya-CONH2 [Example 201]”, the pIC50 was 8.47. Consider “MeCO-dab(2)-Abu(1)-Q-T-W-Q-C(1)-AEF-2Nal-THP-E(2)-N-bAla-CONH2 [Example 269]”, for which the pIC50 was 6.92. On the same count and under the same terms, then “MeCO-Pen(3)-E(2)-T-7MeW-hK(Me)3-Pen(3)-AEF(NMe)(2)-2Nal-THP-E-N-3Pya-Sar-CON(Me)2 [Example 235]”, with below 4.78. For “MeCO-Pen(3)-E(2)-T-7MeW-K(Me)3-Pen(3)-AEF(NMe)(2)-2Nal-THP-K(Me)3-N-3Pya-Sar-CON(Me)2 [Example 240]”, the pIC50 was 5.11. Same read-out and setting: then “cPEG3aCO-Pen(3)-E(2)-T-7MeW-K(Ac)-Pen(3)-AEF(2)-2Nal-THP-K(Ac)-N-3Pya-Sar-CONH2 [Example 231]”, with 6.77.

For the compound “MeCO-Pen(3)-E(2)-T-7MeW-Q(N(Me)2)-Pen(3)-AEF(NMe)(2)-2Nal-THP-Q(N(Me)2)-N-3Pya-Sar-CON(Me)2 [Example 220]”, the pIC50 was below 4.78.

In turn, “GABA(2)-r-Pen(3)-Q-T-W-Q-Pen(3)-AEF-2Nal-THP-E(2)-N-THP-CONH2 [Example 266]” had a negative logarithm of the IC50 (pIC50) of 8.82. The compound “CF3CO-Pen(3)-E(2)-T-7MeW-Q(N(Me)2)-Pen(3)-AEF(NMe)(2)-2Nal-THP-Q(N(Me)2)-N-3Pya-Sar-CON(Me)2 [Example 219]” showed a negative logarithm of the IC50 (pIC50) below 4.78.

Consider “AEEP(2)-Pen(3)-K(PEG2PEG2gEC18OH)-T-7MeW-K(Ac)-Pen(3)-AEF-2Nal-THP-E(2)-N-3Pya-Sar-CONH2 [Example 262]”, for which the pIC50 was 8.54. As to “CF3CO-Pen(3)-E(2)-T-7MeW-K(Me)3-Pen(3)-AEF(NMe)(2)-2Nal-THP-K(Me)3-N-3Pya-Sar-CON(Me)2 [Example 225]”, the negative logarithm of the IC50 (pIC50) was below 4.78. Still for that read-out and setting: for “6Ahx(2)-Abu(1)-N-T-W-Q-C(1)-AEF-2Nal-THP-E(2)-N-3Pya-NMeK(PEG2PEG2gEC18OH)-CONH2 [Example 252]” the value was 8.55. With “MeCO-Pen(3)-E(2)-T-7MeW-K(mPEG12)-Pen(3)-AEF(2)-2Nal-THP-K(Ac)-L-3Pya-Sar-CONH2 [Example 244]”, the pIC50 is 8.59.

“5cpaCO-Pen(3)-E(2)-T-7MeW-K(Ac)-Pen(3)-AEF(2)-2Nal-THP-E-N-3Pya-Sar-CONH2 [Example 229]”: the pIC50 is 6.54. Turning to “GABA(2)-k(PEG2PEG2gEC18OH)-Pen(3)-N-T-7MeW-K(Ac)-Pen(3)-AEF-2Nal-THP-E(2)-N-3Pya-Sar-CONH2 [Example 248]”, the pIC50 is below 4.78. “MeCO-E(2)-Pen(3)-N-T-7MeW-K(Ac)-Pen(3)-AEF-2Nal-THP-K(Ac)-N-3Pya-dK(2)-CONH2 [Example 233]” showed a pIC50 below 4.78. Compound “MeCO-Pen(3)-E(2)-T-W-K(Ac)-Pen(3)-AEF-2Nal-THP-K(Ac)-S-3Pya-Sar-CONH2 [Example 232]” had a pIC50 below 4.78.

For the compound “PEG2(2)-Pen(3)-N-T-7MeW-K(Ac)-Pen(3)-AEF-2Nal-THP-hE(2)-N-3Pya-Sar-CONH2 [Example 227]”, the negative-log IC50 (pIC50) is 5.45.

“CF3CO-Pen(3)-E(2)-T-7MeW-Q(N(Me)2)-Pen(3)-AEF(2)-2Nal-THP-Q(N(Me)2)-N-3Pya-Sar-CON(Me)2 [Example 222]” gave a pIC50 below 4.78. The compound “MeCO-R7H(4)-Pen(3)-N-T-7MeW-K(Ac)-Pen(3)-AEF-2Nal-THP-S5H(4)-N-3Pya-Sar-CONH2 [Example 209]” had a pIC50 of 8.43. “cPEG3aCO-DLys(2)-Pen(3)-N-T-7MeW-K(NMeAc)-Pen(3)-AEF-2Nal-THP-hE(2)-N-3Pya-Sar-CONH2 [Example 242]” showed a pIC50 below 4.78. On the same count and under the same terms, for “AEEP(2)-Pen(3)-N-T-7MeW-K(Ac)-Pen(3)-AEF-2Nal-THP-E(2)-N-3Pya-Sar-CONH2 [Example 247]” the value was 5.45.

As for “cPEG3aCO-Pen(3)-E(2)-T-7MeW-K(NMeAc)-Pen(3)-AEF(NMe)(2)-2Nal-THP-K(NMeAc)-N-3Pya-Sar-CON(Me)2 [Example 237]”, the negative-log IC50 (pIC50) was 6.54.

For “cPEG3aCO-k(2)-Pen(3)-N-T-7MeW-K(Ac)-Pen(3)-AEF-2Nal-THP-hE(2)-N-3Pya-Sar-CONH2 [Example 241]”, the pIC50 was below 4.78. For “5Ava(2)-Abu(1)-N-T-W-Q-C(1)-AEF-2Nal-THP-E(2)-N-3MeH-Sar-CONH2 [Example 253]”, the negative logarithm of the IC50 (pIC50) is 6.57.

Regarding “cPEG3aCO-Pen(3)-E(2)-T-7MeW-K(NMeAc)-Pen(3)-AEF(NMe)(2)-2Nal-THP-E-N-3Pya-Sar-CON(Me)2 [Example 236]”, the pIC50 is below 4.78. Compound “MeCO-Pen(3)-E(2)-T-7MeW-K(Ac)-Pen(3)-AEF(NMe)(2)-2Nal-THP-K(Ac)-N-3Pya-Sar-CONH2 [Example 218]” had a pIC50 below 4.78. The compound “AEEP(2)-Pen(3)-N-T-7MeW-K(Ac)-Pen(3)-AEF-2Nal-THP-E(2)-N-3Pya-Sar-K(PEG2PEG2gEC18OH)-CONH2 [Example 254]” had a negative logarithm of the IC50 (pIC50) of 6.54. In the case of “PEG2(2)-Pen(3)-N-T-7MeW-K(NMeAc)-Pen(3)-AEF-2Nal-THP-hE(2)-N-3Pya-Sar-CONH2 [Example 243]”, the negative logarithm of the IC50 (pIC50) is 8.68. Consider “cPEG3aCO-Pen(3)-E(2)-T-7MeW-K(Me)3-Pen(3)-AEF(NMe)(2)-2Nal-THP-K(Me)3-N-3Pya-Sar-CON(Me)2 [Example 239]”, for which the negative logarithm of the IC50 (pIC50) was below 4.78. Take “cPEG3aCO-Pen(3)-E(2)-T-7MeW-K(NMeAc)-Pen(3)-AEF(2)-2Nal-THP-K(Ac)-N-3Pya-Sar-CONH2 [Example 238]”: the negative-log IC50 (pIC50) was below 4.78.

The same assay, now with this note: Table 4; HEK293 cells with IL-23R, IL-12Rβ1 and STAT-inducible luciferase reporter, stimulated with IL-23; read-out: IC50.
`CC(=O)N(C)CCCC[C@@H]1NC(=O)[C@H](Cc2c[nH]c3c(C)cccc23)NC(=O)[C@H]([C@@H](C)O)NC(=O)[C@H](CC(=O)N(C)C)NC(=O)[C@H]2NC(=O)[C@H](NC(=O)CCOCCOCC[N+](C)(C)C)CCCCNC(=O)CCC[C@@H](C(=O)N[C@@H](CC(N)=O)C(=O)N[C@@H](Cc3cccnc3)C(=O)N(C)CC(=O)N(C)C)NC(=O)C3(CCOCC3)NC(=O)[C@H](Cc3ccc4ccccc4c3)NC(=O)[C@H](Cc3ccc(OCCCCC[N+](C)(C)C)cc3)NC(=O)[C@@H](NC1=O)C(C)(C)SSC2(C)C` [Compd 319]: the negative-log IC50 (pIC50) was 8.55.
